This test addresses Recombinant Btk (Homo sapiens (Human), UniProt Q06187). Kind of test: BTK kinase assay (TR-FRET). Particulars: read-out: IC50 (nM) Btk; 1 hour pre-incubation, ATP at Km.

Protein sequences, listed by entry. Tags and fused reporters are not part of them. Lines headed by an entry give the natural chain unless they say otherwise; changes in a name come on top.
UniProt Q06187: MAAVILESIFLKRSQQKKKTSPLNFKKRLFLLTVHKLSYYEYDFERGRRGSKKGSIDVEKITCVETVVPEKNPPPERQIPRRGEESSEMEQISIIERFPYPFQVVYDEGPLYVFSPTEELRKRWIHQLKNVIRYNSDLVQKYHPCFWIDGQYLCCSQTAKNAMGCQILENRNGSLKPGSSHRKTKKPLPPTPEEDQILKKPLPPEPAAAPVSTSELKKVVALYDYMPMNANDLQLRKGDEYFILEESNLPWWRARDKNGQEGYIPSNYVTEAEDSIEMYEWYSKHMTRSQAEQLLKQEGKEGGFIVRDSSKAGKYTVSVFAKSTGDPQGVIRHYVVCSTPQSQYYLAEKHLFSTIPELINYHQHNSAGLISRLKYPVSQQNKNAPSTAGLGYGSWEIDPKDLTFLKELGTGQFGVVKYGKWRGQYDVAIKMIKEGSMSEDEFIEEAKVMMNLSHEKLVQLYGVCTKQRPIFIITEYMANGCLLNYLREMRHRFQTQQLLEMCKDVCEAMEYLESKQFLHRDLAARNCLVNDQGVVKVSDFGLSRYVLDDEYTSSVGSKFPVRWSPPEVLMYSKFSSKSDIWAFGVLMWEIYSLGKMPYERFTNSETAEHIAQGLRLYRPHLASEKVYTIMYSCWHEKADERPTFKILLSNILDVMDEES

The results in this text go back to patent publication US20250340560A1, “SUBSTITUTED PYRAZOLO[1,5-a]PYRIMIDINES AS BRUTON'S TYROSINE KINASE MODULATORS” (BEIGENE SWITZERLAND GMBH, priority 2013, published 2025).

The IC50 is the concentration at which inhibition is half-maximal.

Turning to `C=CC(=O)Nc1ccccc1C1CCNc2c(C(N)=O)c(-c3ccc(C)c(OC)c3)nn21` (stereo not shown) [Compound 133, 7-(2-acrylamidophenyl)-2-(3-methoxy-4-methylphenyl)-4,5,6,7-tetrahydropyrazolo[1,5-a]pyrimidine-3-carboxamide], the half-maximal inhibitory concentration (IC50) turned out to be 0.53 nM.
